The sample as a whole holds a higher share of hits than the screen did.
HCMV NEC inh = inhibitors of HCMV UL50-UL53 interaction, biochemical, HTRF | 190,000 compounds, 0.15% hits | normalized percent inhibition | HCMV UL50-UL53 nuclear egress complex (human cytomegalovirus) | inhibition, % (no concentration beside the values) | AID 1918969, 2023; in the data active means inhibition above about 27%, passing the limit was not always enough
GIV Gai3 FP = inhibitors of GIV peptide binding to Galpha-i3, primary screen, biochemical, fluorescence polarization, FITC-GIV GBA peptide, rat Galphai3 | 90 min; hits give low values; scaled: aluminum fluoride 0%, vehicle 100% | percent of control (FP), % (concentration not given with the values) | 210,000 compounds, 0.42% hits | AID 1224905, 2016;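 active = replicate mean at 85% of control or lower, very high polarization wells dropped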;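 also: wells of about 15 µL received 100 nL stock; the first replicate is given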
GIV-Gai FP conf = inhibitors of GIV peptide binding to Galpha-i3, confirmation, biochemical, fluorescence polarization, FITC-GIV peptide, rat Galphai3. stronger effect = lower value. 580 compounds, 38% hits. fluorescence polarization, mP at 100 µM. shares compounds with GIV Gai3 FP;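 active means inhibition score of 15 or more, meaning 100 minus mean polarization as percent of control over three replicates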
GIV-Gai AS conf = inhibitors of GIV binding to Galpha-i3, confirmation, orthogonal assay for GIV-Galpha-i inhibitor project, biochemical, AlphaScreen, His-GIV, GST-Galphai3 | shares compounds with GIV Gai3 FP | purified proteins, 90 min; stronger effect = lower value | AlphaScreen counts at 100 µM | 580 compounds, 39% hits | AID 1259351, 2017;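 active means inhibition score at or above a set limit, where the score is 100 minus the three-replicate mean percent of control signal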
* marks the source's active call; other numbers are inactive results; . = no result given.

SMILES	HCMV NEC inh	GIV Gai3 FP	others
CCOc1ccccc1NC(=O)c1cn(C2CCCCC2)c(=O)c2c1c1ccccc1n2C	54*	100
COc1ccc(Cl)cc1NC(=O)c1cn(C2CCCCC2)c(=O)c2c1c1ccccc1n2C	14	104
O=C(O)c1ccc2c(c1)NC(=O)C1CCCN21 (configuration not stated)	79*	.
COC(=O)c1ccc2c(c1)NC(=O)C1CCCN21 (configuration not stated)	-5	.
CCc1ccccc1NC(=O)CSc1ncc2c(n1)-c1ccccc1N(Cc1ccccc1)S2(=O)=O	-23	175
N#CC1=C(N)C(C#N)(C#N)C(c2ccccc2Cl)C2CN(Cc3ccccc3)CC=C12 (configuration not stated)	.	188
N#CC1=C(N)C(C#N)(C#N)C(c2ccco2)C2CN(Cc3ccccc3)CC=C12 (configuration not stated)	-38	-43*
CC(C)NC(=O)c1cn2c3c(ccc(Cl)c3c1=O)OC(C)C2 (configuration not stated)	33	101
CNC(=O)c1cn2c3c(ccc(Cl)c3c1=O)OC(C)C2 (configuration not stated)	50*	110
Cc1cc(C)c(NS(=O)(=O)c2cc(-c3cc(C(F)(F)F)on3)sc2C)c(C)c1	.	100
O=C(CNc1ccccc1)N/N=C/c1ccc(F)cc1	-25	102
CSc1nc(NC(C)(C)C)nc(OCCNS(=O)(=O)c2cc(C)ccc2C)n1	-13	100
CC1(C)c2ssc(=S)c2-c2ccccc2N1C(=O)Cc1ccccc1	.	104
CCCN1CCc2c(sc(NC(=S)NC(=O)c3ccccc3)c2C#N)C1	.	-59*
CC(=O)N1CCc2c(sc(NC(=O)c3ccc(C#N)cc3)c2C#N)C1	-11	.
Cc1cc(C)c(S(=O)(=O)Nc2cnc(N3CCNCC3)c(C(=O)N3CCCCC3C)c2)cc1C (configuration not stated)	.	98
O=C1CS(=O)(=O)CN1c1ccc(Cl)c(Cl)c1	-13	.
O=C(O)COCC(=O)Nc1ccc2c(c1)oc1ccccc12	.	104
O=C(O)CCC(=O)Nc1ccc2c(c1)oc1ccccc12	52*	105
CCOC(=O)c1sc(N/C=C(\C#N)c2nc3cc(Cl)ccc3o2)c(C#N)c1C	-6	-7.6*
CCOC(=O)c1sc(NC(=O)C2c3ccccc3Oc3ccccc32)c(C#N)c1C	2	106
COCCOC(=O)C1=C(C)NC2=C(C(=O)CC(c3ccc(OC)c(OC)c3)C2)C1c1ccc(OC)c(OC)c1 (configuration not stated)	-20	99
CCN1/C(=C\C=C\c2n(CC)c3cc([N+](C)(C)C)ccc3[n+]2CC)N(CC)c2cc([N+](C)(C)C)ccc21	.	94
CCN1/C(=C/C=C/c2n(CC)c3cc(Cl)ccc3[n+]2Cc2ccccc2)N(Cc2ccccc2)c2ccc(Cl)cc21	.	-62*
Cc1cc(NC(=O)c2ccc(N3C(=O)CCC3=O)cc2)nc2c1c(=O)oc1ccccc12	17	102

Continuation:
SMILES	HCMV NEC inh	GIV Gai3 FP	others
COc1ccc(NC2=NS(=O)(=O)C(c3ccccc3)=C2C)cc1	-13	97
Cc1nn(-c2nc3ccc(Br)cc3s2)c2c1C(c1ccc(F)cc1F)CC(=O)N2 (configuration not stated)	.	101
Cc1ccc(C)c(OCCCC(=O)Nc2ccc(N3CCOCC3)cc2)c1	92*	101
Cc1ccc(NC(=O)CS(=O)CC(=O)Nc2ccc(N3CCOCC3)cc2)cc1Cl (configuration not stated)	-7	99
CN1c2ccc(Cl)cc2-c2nc(SCC(=O)NC3CCCCC3)ncc2S1(=O)=O	-17	106
CN1c2cc(Cl)ccc2-c2nc(SCC(=O)NC3CCCCC3)ncc2S1(=O)=O	67*	106
CCOC(=O)c1[nH]c(C)c(CCC(=O)Nc2ccsc2C(=O)OC)c1C	.	111
Cc1ccc(NC(=O)N2CCC(O)C2)cc1 (configuration not stated)	.	105
c1cc(-c2nnco2)ccn1	5	.
Cc1ccc(S(=O)(=O)N2CCc3cc4cc(C)ccc4nc32)cc1	-17	103
O=c1oc2cc(O)ccc2cc1-c1csc(-c2ccccc2Cl)n1	5	112
O=c1oc2cc(O)ccc2cc1-c1nc(-c2ccccc2F)no1	-30	-62*
COC(=O)CC1=CC(SCc2ccccc2F)=Nc2ccccc2N1	-28	106
CN(C)c1ccc2c3c(cccc13)C(=O)N(c1nc3ccccc3n1C)C2=O	4	146
CC(=O)NN1C(=O)c2cccc3c(N(C)C)ccc(c23)C1=O	.	66*
Nc1ccc(-c2nc3ccccc3s2)cc1	-35	.
Nc1ncc(-c2nc3ccccc3s2)c(N)n1	-14	-55*
CCOC(=O)C1=C(C)N=c2s/c(=C\c3cc(Br)c(O)c(OC)c3)c(=O)n2C1c1ccc2c(c1)OCO2 (configuration not stated)	-23	-57*
CCOC(=O)C1=C(C)N=c2s/c(=C\c3cc(OC)c(OC)c(OC)c3)c(=O)n2C1c1ccc2c(c1)OCO2 (configuration not stated)	-22	103
CCOC(=O)C1=C(C)N=c2s/c(=C\c3cc(Br)c(O)c(OC)c3)c(=O)n2C1c1cccs1 (configuration not stated)	-18	77*
CCOC(=O)C1=C(C)N=c2s/c(=C\c3cc(Br)c(OC)cc3OC)c(=O)n2C1c1cccs1 (configuration not stated)	-30	147
CCOC(=O)c1c(C)sc(-c2c(-c3cccc(Cl)c3)[nH]c3c2c(=O)n(C)c(=O)n3C)c1O	-25	-63*
CCOC(=O)c1c(C)sc(-c2c(-c3cc(C)ccc3C)[nH]c3c2c(=O)n(C)c(=O)n3C)c1O	15	195
CC(=O)[C@@H]1[C@@H](c2ccc3c(c2)OCO3)C(C#N)(C#N)[C@H]2C=Cc3ccccc3N12	.	152
COc1ccc2c(c1)CC/C(=C\c1cccn1C)C2=O	-50	101

(further entries)
SMILES	HCMV NEC inh	GIV Gai3 FP	others
Cn1cccc1/C=C1\CCC/C(=C\c2cccn2C)C1=O	-78	-88*
Cc1cc(C)cc(NC(=O)c2oc3c(c2C)-c2[nH]ncc2CC3)c1	.	110
Cc1c(C(=O)O)oc2c1-c1[nH]ncc1CC2	61*	98
CCOC(=O)c1sc(N)c(C#N)c1CSc1ccc2c(c1)OCCO2	-24	.
O=C1COc2ccc(S(=O)(=O)N3CCCC3C(=O)Nc3cccc(Cl)c3)cc2N1 (configuration not stated)	-23	107
O=C1CCCC(O)=C1C=NCCCn1ccnc1	-19	87	GIV-Gai FP conf=66;GIV-Gai AS conf=3828*
O=C1CCCC(O)=C1C=Nc1ccc(N=CC2=C(O)CCCC2=O)cc1	-13	101

Source: PubChem BioAssay
